Laboratory results: patent publication US20210393810A1, “DIHYDRAZONE COMPOUNDS HAVING HIGH AFFINITY TO A BETA PROTEIN AND TAU PROTEIN, DERIVATIVES THEREOF AND USE THEREOF” (HTA CO., LTD., priority 2019, published 2021)

Sequences of proteins named here, by UniProt entry; tags and fusion partners are left off. Residues count along the entry.
UniProt P05067, 672-713 limits assumed: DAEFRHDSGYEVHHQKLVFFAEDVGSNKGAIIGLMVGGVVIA

Target: Aβ1-42 aggregates (Homo sapiens, UniProt P05067)
Assay: Competitive binding experiment with [125I]IMPY
Conditions: competition with [125I]IMPY, Aβ1-42, 37° C., 3 hours
Procedure: (1) formulating a 0.1% BSA solution with pH=7.4;
(2) preparing a radioligand [125I] IMPY according to the known methods; formulating [125I] IMPY into a solution of 60000-100000 cpm/100 μL for later use;
(3) formulating the compound to be tested into a 10^−5 to 10^−11 mol/L serially diluted ethanol solution;
(4) preparing Aβ1-42 proteins according to the known methods, and diluting it into an aqueous solution of about 30 nM;
(5) soaking a glass fiber filter membrane in PBS solution containing 0.1% polyethyleneimine for 30 minutes;
(6) adding 100 μL of the test compound solutions with different concentrations and 100 μL of [125I] IMPY solution, 700 μL of BSA solution and 100 μL of Aβ1-42 solution into a 12 mm×75 mm borosilicate glass tube, and vortexing;
(7) incubating with shaking in a constant temperature water bath at 37° C. for 3 hours;
(8) collecting the reaction solution by a multi-head cell collector, and rinsing the reaction solution for three times with 10% ethanol solution;
(9) measuring and counting with a gamma counter;
(10) analyzing and processing data using GraphPrad Prism 5.01 to obtain an affinity constant Ki.
Activity between some compounds and Aβ1-42 aggregates was quantitatively determined by the method.

CN(C)c1ccc(/C=N/N=C/c2ccc(N(C)C)nc2)cn1
Ki: 6.46 nM
